This note sets out measurements from ChEMBL document CHEMBL1124221.

Sequences of proteins named here, by UniProt entry; tags and fusion partners are left off.
UniProt P97266, whole entry: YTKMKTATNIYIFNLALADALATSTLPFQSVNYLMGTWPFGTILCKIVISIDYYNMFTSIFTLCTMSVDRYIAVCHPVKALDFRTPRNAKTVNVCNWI

In experiment [1] the test system is Rattus norvegicus. Briefly: Dose (po) required to produce 50% of the maximum possible analgesic effect, evaluated by rat-paw pressure assay.
Experiment [2] relates to Rattus norvegicus. Briefly: Dose (sc) required to produce 50% of the maximum possible analgesic effect, evaluated by rat-paw pressure assay.
The target of experiment [3] is T1, Mu-type opioid receptor (Cavia porcellus, UniProt P97266). Briefly: Binding affinity for the Opioid receptor mu 1.
Experiment [4] addresses T1, Mu-type opioid receptor. Briefly: Binding affinity for the Opioid receptor mu 1. This is another data set of the same source.

pKi: −log10 of the molar value. Several values for one entry are separate records, joined by “and”; a condition that tells them apart may be missing. Equal entries are not always repeated. Where only a bound is given, the exact number is not on record here.

In the case of `CN(C(=O)Cc1cccc2occc12)[C@@H]1CCCC[C@H]1N1CCCC1.Cl`, the MPE50 in the experiment with Rattus norvegicus [1] worked out at 24 mg/kg.

Compound `CN(C(=O)Cc1cccc2sccc12)[C@@H]1CCCC[C@H]1N1CCCC1.Cl` registered an MPE50 in the experiment with Rattus norvegicus [2] of 10 mg/kg.

For the compound `CN(C(=O)Cc1ccc(Cl)c(Cl)c1)C1CCCCC1N1CCCC1` (stereo not given), the MPE50 with Rattus norvegicus [1] was 43 mg/kg.

In the experiment on Rattus norvegicus [2], `CN(C(=O)Cc1c[nH]c2ccccc12)[C@@H]1CCCC[C@H]1N1CCCC1` yielded an MPE50 above 300 mg/kg.

As for `CC[C@@]12CCN(CC3CC3)C(C(=O)c3ccc(O)cc31)[C@@H]2C`, the results for the MPE50 with Rattus norvegicus [1] and in the experiment with Rattus norvegicus [2] were 70 mg/kg and 0.3 mg/kg, respectively.

Take `CN(CCc1cccs1)[C@@H]1CCCC[C@H]1N(C)C(=O)Cc1cccc2sccc12.Cl`: the MPE50 in the experiment on Rattus norvegicus [1] is above 300 mg/kg.

In the case of `CN(C(=O)Cc1cccc2occc12)[C@@H]1CCCC[C@H]1N1CCCCCC1.Cl`, the MPE50 in the experiment with Rattus norvegicus [1] is above 100 mg/kg.

`Br.CN(C(=O)Cc1cccc2occc12)[C@@H]1CCCC[C@H]1N1CCCC1` came in with an MPE50 with Rattus norvegicus [1] of 12 mg/kg.

As for `CN(CCc1ccccc1)[C@@H]1CCCC[C@H]1N(C)C(=O)Cc1cccc2sccc12.Cl`, the MPE50 in the experiment with Rattus norvegicus [1] is above 100 mg/kg.

On to `CN(C(=O)Cc1cccc2sccc12)[C@@H]1CCCC[C@H]1N1CCCC1`, for which the negative logarithm of the Ki (pKi) on Mu-type opioid receptor [3] was 6.06; on Mu-type opioid receptor [4], 6.00 and 6.39.

For the compound `CN(C(=O)Cc1ccc(Cl)c(Cl)c1)C1CCC2(CCCO2)CC1N1CCCC1` (stereo not given), the MPE50 in the experiment on Rattus norvegicus [1] was 7.8 mg/kg.

`CN(C(=O)Cc1cccc2sccc12)[C@@H]1CCCC[C@H]1N1CCCCCC1.Cl`: the results for the MPE50 in the experiment on Rattus norvegicus [1] and in the experiment with Rattus norvegicus [2] were 120 mg/kg and above 100 mg/kg, respectively.
